Target: EGFR T790M/L858R (Homo sapiens (Human), UniProt P00533, L858R/T790M)
Test: Omnia biochemical assay, EGFR-T790M/L858R active enzyme
Details: [EGFR-T790M/L858R]=2.5 nM, [ATP]=20 uM, 30 min pre-incubation

Amino acid sequences for entries named in this document (tags omitted). Residues count along the entry.
UniProt P00533, 25-1210 T790M/L858R: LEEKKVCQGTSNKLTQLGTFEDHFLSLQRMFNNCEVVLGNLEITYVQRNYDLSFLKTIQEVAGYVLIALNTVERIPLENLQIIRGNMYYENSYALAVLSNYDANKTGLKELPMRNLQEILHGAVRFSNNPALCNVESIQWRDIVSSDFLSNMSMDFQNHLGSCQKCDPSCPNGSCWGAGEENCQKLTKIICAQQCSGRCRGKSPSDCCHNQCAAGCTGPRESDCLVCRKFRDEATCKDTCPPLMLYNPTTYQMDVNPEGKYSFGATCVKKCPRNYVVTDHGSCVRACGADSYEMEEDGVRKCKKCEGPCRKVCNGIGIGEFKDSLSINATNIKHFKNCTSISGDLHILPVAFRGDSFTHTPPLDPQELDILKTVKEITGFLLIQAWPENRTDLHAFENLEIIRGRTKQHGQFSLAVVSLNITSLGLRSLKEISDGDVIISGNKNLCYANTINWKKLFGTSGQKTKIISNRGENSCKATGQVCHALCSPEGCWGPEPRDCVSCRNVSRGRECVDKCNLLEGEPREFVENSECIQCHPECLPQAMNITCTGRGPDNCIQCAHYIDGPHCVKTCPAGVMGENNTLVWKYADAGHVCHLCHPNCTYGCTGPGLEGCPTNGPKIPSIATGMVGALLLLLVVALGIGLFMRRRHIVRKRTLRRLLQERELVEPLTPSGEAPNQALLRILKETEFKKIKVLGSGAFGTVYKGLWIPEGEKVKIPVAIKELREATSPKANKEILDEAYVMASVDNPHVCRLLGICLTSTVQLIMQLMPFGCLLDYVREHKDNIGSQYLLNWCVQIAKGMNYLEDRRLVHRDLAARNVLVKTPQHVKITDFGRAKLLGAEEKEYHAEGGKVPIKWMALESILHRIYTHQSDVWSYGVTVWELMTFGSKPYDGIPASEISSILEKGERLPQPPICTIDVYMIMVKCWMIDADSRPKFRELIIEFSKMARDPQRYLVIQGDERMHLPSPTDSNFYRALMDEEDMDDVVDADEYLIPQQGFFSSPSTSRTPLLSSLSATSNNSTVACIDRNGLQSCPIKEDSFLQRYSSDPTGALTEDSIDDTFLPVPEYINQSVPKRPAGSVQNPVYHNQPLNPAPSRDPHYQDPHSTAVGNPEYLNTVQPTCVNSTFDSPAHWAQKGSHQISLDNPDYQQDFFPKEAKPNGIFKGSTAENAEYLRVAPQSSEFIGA

SMILES | IC50 [nM]
C=CC(=O)Nc1cccc(Nc2nc(Nc3ccc(N4CCCN(C(C)=O)CC4)cc3OC)ncc2C(F)(F)F)c1 [Compound I-7, N-(3-(2-(4-(4-acetyl-1,4-diazepan-1-yl)-2-methoxyphenylamino)-5-(trifluoromethyl)pyrimidin-4-ylamino)phenyl)acrylamide] | < 1
C=CC(=O)Nc1cccc(Nc2nc(Nc3ccc(N4CCN(C(=O)CO)CC4)cc3OC(F)F)ncc2C(F)(F)F)c1 [Compound I-31, N-(3-(2-(2-(difluoromethoxy)-4-(4-(2-hydroxyacetyl)piperazin-1-yl)phenylamino)-5-(trifluoromethyl)pyrimidin-4-ylamino)phenyl)acrylamide] | < 1
C=CC(=O)Nc1cccc(Oc2nc(Nc3ccc(N4CCN(C(=O)OC(C)(C)C)CC4)cc3OC(F)(F)F)ncc2Cl)c1 [Compound I-47, tert-butyl 4-(4-(4-(3-acrylamidophenoxy)-5-chloropyrimidin-2-ylamino)-3-(trifluoromethoxy)phenyl)piperazine-1-carboxylate] | 10 to 30
C=CC(=O)Nc1cccc(Oc2nc(Nc3ccc(N4CCN(S(N)(=O)=O)CC4)cc3OC)ncc2C(F)(F)F)c1 [Compound I-27, N-(3-(2-(2-methoxy-4-(4-sulfamoylpiperazin-1-yl)phenylamino)-5-(trifluoromethyl)pyrimidin-4-yloxy)phenyl)acrylamide] | 1 to 10
C=CC(=O)Nc1cccc(Nc2nc(Nc3ccc(N4CCN(C(=O)CO)CC4)cc3OC)ncc2Cl)c1 [Compound I-12, N-(3-(5-chloro-2-(4-(4-(2-hydroxyacetyl)piperazin-1-yl)-2-methoxyphenylamino)pyrimidin-4-ylamino)phenyl)acrylamide] | < 1
C=CC(=O)Nc1cccc(Oc2nc(Nc3ccc(N4CCN(C(=O)OC(C)(C)C)CC4)cc3OCC)ncc2Cl)c1 [Compound I-18, tert-butyl 4-(4-(4-(3-acrylamidophenoxy)-5-chloropyrimidin-2-ylamino)-3-ethoxyphenyl)piperazine-1-carboxylate] | 10 to 30
C=CC(=O)Nc1cccc(Nc2nc(Nc3ccc(N4CCN(C(C)=O)CC4)cc3OC)ncc2Br)c1 [Compound I-40, N-(3-(2-(4-(4-acetylpiperazin-1-yl)-2-methoxyphenylamino)-5-bromopyrimidin-4-ylamino)phenyl)acrylamide] | 1 to 10
C=CC(=O)Nc1cccc(Oc2nc(Nc3ccc(N4CCN(C(=O)CO)CC4)cc3OC)ncc2Cl)c1 [Compound I-3, N-(3-(5-chloro-2-(4-(4-(2-hydroxyacetyl)piperazin-1-yl)-2-methoxyphenylamino)pyrimidin-4-yloxy)phenyl)acrylamide] | < 1
C=CC(=O)Nc1cccc(Oc2nc(Nc3ccc(N4CCCN(C(=O)OC(C)(C)C)CC4)cc3OC)ncc2C(F)(F)F)c1 [Compound I-39, tert-butyl 4-(4-(4-(3-acrylamidophenoxy)-5-(trifluoromethyl)pyrimidin-2-ylamino)-3-methoxyphenyl)-1,4-diazepane-1-carboxylate] | 10 to 30
C=CC(=O)Nc1cccc(Oc2nc(Nc3ccc(N4CCN(C(=O)OC(C)(C)C)CC4)cc3OC)ncc2C(F)(F)F)c1 [Compound I-42, tert-butyl 4-(4-(4-(3-acrylamidophenoxy)-5-(trifluoromethyl)pyrimidin-2-ylamino)-3-methoxyphenyl)piperazine-1-carboxylate] | 300 to 1000
C=CC(=O)Nc1cccc(Nc2nc(Nc3ccc(N4CCCN(C(=O)C(F)(F)F)CC4)cc3OC)ncc2C(F)(F)F)c1 [Compound I-19, N-(3-(2-(2-methoxy-4-(4-(2,2,2-trifluoroacetyl)-1,4-diazepan-1-yl)phenylamino)-5-(trifluoromethyl)pyrimidin-4-ylamino)phenyl)acrylamide] | 1 to 10
C=CC(=O)Nc1cccc(Nc2nc(Nc3ccc(N4CCN(C(=O)C(C)(C)C)CC4)cc3OC)ncc2C(F)(F)F)c1 [Compound I-34, N-(3-(2-(2-methoxy-4-(4-pivaloylpiperazin-1-yl)phenylamino)-5-(trifluoromethyl)pyrimidin-4-ylamino)phenyl)acrylamide] | < 1
C=CC(=O)Nc1cccc(Nc2nc(Nc3ccc(N4CCN(C(C)=O)CC4)cc3OC(F)F)ncc2C(F)(F)F)c1 [Compound I-32, N-(3-(2-(4-(4-acetylpiperazin-1-yl)-2-(difluoromethoxy)phenylamino)-5-(trifluoromethyl)pyrimidin-4-ylamino)phenyl)acrylamide] | < 1
C=CC(=O)Nc1cccc(Oc2nc(Nc3ccc(N4CCN(C(=O)OC(C)(C)C)CC4)cc3OC)ncc2Cl)c1 [Compound I-46, tert-butyl 4-(4-(4-(3-acrylamidophenoxy)-5-chloropyrimidin-2-ylamino)-3-methoxyphenyl)piperazine-1-carboxylate] | < 1
C=CC(=O)Nc1cccc(Nc2nc(Nc3ccc(N4CCN(C(C)=O)CC4)cc3OC(F)(F)F)ncc2C(F)(F)F)c1 [Compound I-33, N-(3-(2-(4-(4-acetylpiperazin-1-yl)-2-(trifluoromethoxy)phenylamino)-5-(trifluoromethyl)pyrimidin-4-ylamino)phenyl)acrylamide] | < 1
C=CC(=O)Nc1cccc(Oc2nc(Nc3ccc(N4CCN(C(=O)CO)CC4)cc3OC)ncc2C(F)(F)F)c1 [Compound I-11, N-(3-(2-(4-(4-(2-hydroxyacetyl)piperazin-1-yl)-2-methoxyphenylamino)-5-(trifluoromethyl)pyrimidin-4-yloxy)phenyl)acrylamide] | < 1

SMILES | IC50 [nM]
C=CC(=O)Nc1cccc(Nc2nc(Nc3ccc(N4CCN(C(C)=O)CC4)cc3OC)ncc2Cl)c1 [Compound I-8, N-(3-(2-(4-(4-acetylpiperazin-1-yl)-2-methoxyphenylamino)-5-chloropyrimidin-4-ylamino)phenyl)acrylamide] | 1 to 10
C=CC(=O)Nc1cccc(Oc2nc(Nc3ccc(N4CCN(C(=O)NC)CC4)cc3OC)ncc2C(F)(F)F)c1 [Compound I-21, 4-(4-(4-(3-acrylamidophenoxy)-5-(trifluoromethyl)pyrimidin-2-ylamino)-3-methoxyphenyl)-N-methylpiperazine-1-carboxamide] | < 1
C=CC(=O)Nc1cccc(Oc2nc(Nc3ccc(N4CCCOCC4)cc3OC)ncc2Cl)c1 [Compound I-37, N-(3-(5-chloro-2-(2-methoxy-4-(1,4-oxazepan-4-yl)phenylamino)pyrimidin-4-yloxy)phenyl)acrylamide] | 1 to 10
C=CC(=O)Nc1cccc(Nc2nc(Nc3ccc(N4CCN(C(=O)OC)CC4)cc3OC)ncc2C(F)(F)F)c1 [Compound I-29, methyl 4-(4-(4-(3-acrylamidophenylamino)-5-(trifluoromethyl)pyrimidin-2-ylamino)-3-methoxyphenyl)piperazine-1-carboxylate] | < 1
C=CC(=O)Nc1cccc(Nc2nc(Nc3ccc(N4CCN(S(C)(=O)=O)CC4)cc3OC)ncc2C(F)(F)F)c1 [Compound I-17, N-(3-(2-(2-methoxy-4-(4-(methylsulfonyl)piperazin-1-yl)phenylamino)-5-(trifluoromethyl)pyrimidin-4-ylamino)phenyl)acrylamide] | < 1
C=CC(=O)Nc1cccc(Nc2nc(Nc3ccc(N4CCCOCC4)cc3OC)ncc2C(F)(F)F)c1 [Compound I-38, N-(3-(2-(2-methoxy-4-(1,4-oxazepan-4-yl)phenylamino)-5-(trifluoromethyl)pyrimidin-4-ylamino)phenyl)acrylamide] | < 1
C=CC(=O)Nc1cccc(Nc2nc(Nc3ccc(N4CCN(C(C)=O)[C@H](C(=O)OC)C4)cc3OC)ncc2C(F)(F)F)c1 [Compound I-48, (S)-methyl 1-acetyl-4-(4-(4-(3-acrylamidophenylamino)-5-(trifluoromethyl)pyrimidin-2-ylamino)-3-methoxyphenyl)piperazine-2-carboxylate] | < 1
C=CC(=O)Nc1cccc(Oc2nc(Nc3ccc(N4CCOCC4)cc3OC)ncc2C(F)(F)F)c1 [Compound I-1, N-(3-(2-(2-methoxy-4-morpholinophenylamino)-5-(trifluoromethyl)pyrimidin-4-yloxy)phenyl)acrylamide] | 1 to 10
C=CC(=O)Nc1cccc(Oc2nc(Nc3ccc(N4CCOCC4)cc3OC)ncc2Cl)c1 [Compound I-5, N-(3-(5-chloro-2-(2-methoxy-4-morpholinophenylamino)pyrimidin-4-yloxy)phenyl)acrylamide] | 1 to 10
C=CC(=O)Nc1cccc(Nc2nc(Nc3ccc(N4CCN(C(=O)CC)CC4)cc3OC)ncc2C(F)(F)F)c1 [Compound I-35, N-(3-(2-(2-methoxy-4-(4-propionylpiperazin-1-yl)phenylamino)-5-(trifluoromethyl)pyrimidin-4-ylamino)phenyl)acrylamide] | < 1
C=CC(=O)Nc1cccc(Nc2nc(Nc3ccc(N4CCS(=O)(=O)CC4)cc3OC)ncc2C(F)(F)F)c1 [Compound I-49, N-(3-(2-(2-methoxy-4,4-dioxo-4-thiomorpholinophenylamino)-5-(trifluoromethyl)pyrimidin-4-ylamino)phenyl)acrylamide] | < 1
C=CC(=O)Nc1cccc(Nc2nc(Nc3ccc(N4CCOCC4)cc3OC)ncc2C(F)(F)F)c1 [Compound I-2, N-(3-(2-(2-methoxy-4-morpholinophenylamino)-5-(trifluoromethyl)pyrimidin-4-ylamino)phenyl)acrylamide] | < 1
C=CC(=O)Nc1cccc(Nc2nc(Nc3ccc(N4CCCN(C(=O)OC(C)(C)C)CC4)cc3OC)ncc2C(F)(F)F)c1 [Compound I-44, tert-butyl 4-(4-(4-(3-acrylamidophenylamino)-5-(trifluoromethyl)pyrimidin-2-ylamino)-3-methoxyphenyl)-1,4-diazepane-1-carboxylate] | 1 to 10
C=CC(=O)Nc1cccc(Oc2nc(Nc3ccc(N4CCN(S(C)(=O)=O)CC4)cc3OC)ncc2C(F)(F)F)c1 [Compound I-22, N-(3-(2-(2-methoxy-4-(4-(methylsulfonyl)piperazin-1-yl)phenylamino)-5-(trifluoromethyl)pyrimidin-4-yloxy)phenyl)acrylamide] | < 1
C=CC(=O)Nc1cccc(Oc2nc(Nc3ccc(N4CCCN(C(=O)OC(C)(C)C)CC4)cc3OC)ncc2Cl)c1 [Compound I-43, tert-butyl 4-(4-(4-(3-acrylamidophenoxy)-5-chloropyrimidin-2-ylamino)-3-methoxyphenyl)-1,4-diazepane-1-carboxylate] | 1 to 10
